# Assay results as given in patent US20220280427A1, “LIPID NANOPARTICLE COMPOSITIONS COMPRISING CLOSED-ENDED DNA AND CLEAVABLE LIPIDS AND METHODS OF USE THEREOF” (Generation Bio Co., priority 2019, published 2022).
# Legend:
# [1] = test system: IFNα, IFNγ, IL-18, IL-6, TNFα, IP-10, MCP-1, MIP1α, MIP1β, RANTES; assay: Serum cytokine and chemokine levels in CD-1 mice (Example 7); type: in vivo; conditions: co-formulated with ceDNA-luc in ss-Paz3 LNPs, serum 6 hours after dosing, 0.5 mg/kg IV
# Description: Briefly, ceDNA-luc was formulated in LNPs containing SS-cleavable lipids and MC3 as described above and dosed at 0.5 mg/kg IV into male CD-1 mice. In one LNP, dexamethasone palmitate was included and co-formulated with ceDNA-luc in the ss-Paz3 (ssPalmE-Paz4-C2; also known as SS-33/1PZ-21) LNPs. As mentioned above, the numbers 3 and 4, as in ss-OP3 and ss-OP4; or in ss-Paz3 and ss-Paz4, represent total lipid components in LNP formulation. For example, ss-OP3 LNP contains three different lipid components: ss-OP, cholesterol and PEG-DMG. Similarly, ss-OP4 LNP has four different lipid components: ss-OP, DOPC, cholesterol and PEG-DMG. Dexamethasone palmitate (DexPalm) is an anti-inflammatory agent that inhibits leukocytes and tissue macrophages, and reduces inflammatory response. […]
# The study details are set forth below. […] Body weights for all animals were be recorded on Days 0, 1, 2, 3, 7, 14, 21 and 28 (prior to euthanasia). Additional body weights were recorded as needed. ceDNA were supplied in a concentration stock (0.5 mg/mL). […] On Days 3, 7, 14 (optional Days 21 and 28), remaining animals in Groups 1-11 were dosed with luciferin at 150 mg/kg (60 mg/mL) via intraperitoneal (IP) injection at 2.5 mL/kg. ≤15 minutes post each luciferin administration Luminescence was obtained by using in vivo imaging system (IVIS) imaging as described below. […]
# [2] = test system: cytokines; assay: Serum cytokine release in CD-1 mice (Example 9); type: in vivo; conditions: ss-OP4:ceDNA-luc + DexP groups, all groups tested with DexPalm
# Description: Dose Administration: Test articles for Groups 1-7 were dosed at 5 mL/kg on Day 0 by IV administration via lateral tail vein. Test articles for Group 8 were dosed at 5 mL/kg on Day 1 by IV administration via lateral tail vein. The dose level of 2.0 mg/kg or 0.75 mg/kg was determined after the 6 and 24 hour clinical observations of Group 7. If any adverse effects are seen the lower dose was administered.
# Blood Collection: All animals had blood collected on Day 0 & 1 and Day 1 & 2 per table Sample Collection table above. After each collection animals received 0.5-1.0 mL lactated Ringer's, subcutaneously.
# Whole blood for serum was collected by tail-vein nick, saphenous vein or orbital sinus puncture (under inhalant isoflurane per facility SOPs). Whole blood was collected into a serum separator with clot activator tube and processed into one (1) aliquot of serum per facility SOPs. All samples were stored at nominally −70° C.
substance,measurement,setting,value
Dexamethasone palmitate,effect of dexamethasone palmitate in the LNP formulation on cytokines,[1],further reductions in some cytokines
same,effect of dexamethasone palmitate in the LNP formulation on cytokines,[1]; listed as dexamethasone palmitate,beneficial effects
same,effect of dexamethasone palmitate on cytokines,[2],further reductions in some cytokines
